Source: patent US20250255874A1, “Methods for Treating Immune Thrombocytopenia By Administering (R)-2-[3-[4-Amino-3-(2-Fluoro-4-Phenoxy-Phenyl)Pyrazolo[3,4-D]Pyrimidin-1-YL]Piperidine-1-Carbonyl]-4-Methyl-4-[4-(Oxetan-3-YL)Piperazin-1-YL]Pent-2-Enentrile” (Principia Biopharma Inc., priority 2022, published 2025)

Experiments:
[1] = tested on: patients with relapsed/refractory immune thrombocytopenia; details: in vivo;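 note: adverse events graded by NCI CTCAE version 4.0, with worsening of pre-existing conditions counted as adverse events, analysed in the Safety Population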
[2] = tested on: patients with relapsed/refractory immune thrombocytopenia; test: Phase 1/2 study (NCT03395210) Part A, safety;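 note: adverse events graded by NCI CTCAE version 4.0, with worsening of pre-existing conditions counted as adverse events, analysed in the Safety Population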

In the case of `CC(C)(C=C(C#N)C(=O)N1CCC[C@@H](n2nc(-c3ccc(Oc4ccccc4)cc3F)c3c(N)ncnc32)C1)N1CCN(C2COC2)CC1` [rilzabrutinib, (R)-2-[3-[4-amino-3-(2-fluoro-4-phenoxy-phenyl)pyrazolo[3,4-d]pyrimidin-1-yl]piperidine-1-carbonyl]-4-methyl-4-[4-(oxetan-3-yl)piperazin-1-yl]pent-2-enenitrile], the “adverse events typically associated with BTK inhibitors (neutropenia, treatment-related infections, bleeding, thrombotic events, fungal infections, atrial fibrillation)” value [1] is reported as “no signs or symptoms”, the dose-limiting toxicities ([2]; 45 patients initiating 400 mg bid) is reported as “no dose-limiting toxicities” and the “treatment-related grade ≥2 bleeding or thrombotic events” value ([2]; 45 patients who initiated 400 bid) is reported as “no treatment-related grade ≥2 bleeding or thrombotic events”. For the same compound, the “Any TEAE, Treatment-Related TEAEs, Grade 3/4” value ([2]; Safety Population, N = 60) was 0 (0) number of patients (percent), the “treatment-related grade ≥3 or serious adverse events” value ([2]; all doses) was “No treatment-related grade ≥3 or serious adverse events were observed” and the “IBLS grade 3, 4, or 5 bleeding events” value ([2]; baseline or week 24/EOS, patients who completed 24 weeks (n=34)) was “no grade 3, 4, or 5 bleeding events”. For the same compound, the “IBLS bleeding scale scores within each domain” value ([2]; baseline through end of treatment, improved at skin and oral sites) was “no increase in bleeding”, the “patients developing platelet counts >400×10^9/L” value ([2]; in vivo) was “no patient developed platelet counts >400×10^9/L” and the “patients with a TEAE that resulted in study drug discontinuation” value ([2]; in vivo) was “Seven”.
